Literature values, collected in patent US20060211980A1 (priority 2005, published 2006).

Conditions: basic pKa

## Nc1nc(N)c(-c2ccccc2)s1 [amiphenazole]
  pKa: about 7
